For 4 compounds, IC50 and EC50 results are on record in ChEMBL document CHEMBL4011620, “Design and Discovery of N-(2-Methyl-5'-morpholino-6'-((tetrahydro-2H-pyran-4-yl)oxy)-[3,3'-bipyridin]-5-yl)-3-(trifluoromethyl)benzamide (RAF709): A Potent, Selective, and Efficacious RAF Inhibitor Targeting RAS Mutant Cancers” (J Med Chem, 2017).

Chains of the proteins cited; added tags and fusions are not shown.
UniProt P04049, whole entry Y340E/Y341E: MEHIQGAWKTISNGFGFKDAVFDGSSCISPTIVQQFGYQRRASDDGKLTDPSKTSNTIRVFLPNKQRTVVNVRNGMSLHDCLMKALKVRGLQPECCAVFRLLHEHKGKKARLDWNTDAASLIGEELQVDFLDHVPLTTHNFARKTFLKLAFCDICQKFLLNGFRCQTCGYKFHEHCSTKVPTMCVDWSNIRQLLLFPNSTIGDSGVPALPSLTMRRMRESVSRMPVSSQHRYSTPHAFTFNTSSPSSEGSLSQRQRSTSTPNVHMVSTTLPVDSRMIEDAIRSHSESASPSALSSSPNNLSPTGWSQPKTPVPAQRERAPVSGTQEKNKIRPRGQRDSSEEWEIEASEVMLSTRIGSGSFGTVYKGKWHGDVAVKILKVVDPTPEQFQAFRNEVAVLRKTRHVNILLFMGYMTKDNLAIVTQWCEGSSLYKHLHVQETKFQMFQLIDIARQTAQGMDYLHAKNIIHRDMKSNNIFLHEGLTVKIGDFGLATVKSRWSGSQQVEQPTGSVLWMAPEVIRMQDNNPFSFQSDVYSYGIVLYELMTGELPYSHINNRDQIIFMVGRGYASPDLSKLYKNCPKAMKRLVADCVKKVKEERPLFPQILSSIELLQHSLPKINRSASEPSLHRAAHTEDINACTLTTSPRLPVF
UniProt P15056, whole entry: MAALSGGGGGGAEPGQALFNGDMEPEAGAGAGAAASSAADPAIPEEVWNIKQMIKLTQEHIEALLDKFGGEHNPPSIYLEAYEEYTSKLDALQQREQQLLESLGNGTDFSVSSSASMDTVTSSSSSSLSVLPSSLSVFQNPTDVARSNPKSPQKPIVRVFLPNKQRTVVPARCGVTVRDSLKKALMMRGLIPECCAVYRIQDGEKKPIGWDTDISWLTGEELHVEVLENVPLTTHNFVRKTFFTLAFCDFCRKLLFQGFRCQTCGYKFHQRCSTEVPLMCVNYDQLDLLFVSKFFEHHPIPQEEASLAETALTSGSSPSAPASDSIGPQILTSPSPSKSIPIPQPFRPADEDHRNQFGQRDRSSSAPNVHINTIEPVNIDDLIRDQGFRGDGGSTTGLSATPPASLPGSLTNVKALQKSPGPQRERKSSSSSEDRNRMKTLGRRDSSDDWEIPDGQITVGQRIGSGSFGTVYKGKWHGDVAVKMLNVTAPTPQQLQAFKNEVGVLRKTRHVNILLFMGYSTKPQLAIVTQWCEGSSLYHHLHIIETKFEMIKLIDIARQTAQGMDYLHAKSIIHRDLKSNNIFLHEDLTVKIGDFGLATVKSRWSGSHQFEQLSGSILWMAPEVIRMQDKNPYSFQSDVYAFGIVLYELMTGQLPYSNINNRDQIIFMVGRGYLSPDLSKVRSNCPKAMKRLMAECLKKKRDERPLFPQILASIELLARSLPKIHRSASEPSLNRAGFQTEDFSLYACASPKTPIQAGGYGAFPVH

The IC50 is the concentration at which inhibition is half-maximal. For orientation: EC50 means the midpoint of the concentration-response curve.

The target in assay [1] is RAF proto-oncogene serine/threonine-protein kinase (Homo sapiens, UniProt P04049, Y340E/Y341E). The experiment in a line: Inhibition of CRAF Y340E/Y341E mutant (unknown origin) using human MEK1 K97R mutant as substrate pretreated for 30 mins followed by substrate addition measured after 40 mins by alphascreen assay.
In assay [2] the target is T1, RAF proto-oncogene serine/threonine-protein kinase (Homo sapiens, UniProt P04049). The experiment in a line: Inhibition CRAF in human Calu6 cells assessed as decrease in MEK phosphorylation after 2 hrs by HTRF method. It counts as cell-based. In general terms: TR-FRET usually uses a lanthanide donor and a delayed reading to cut background.
Assay [3] has as its target T1, RAF proto-oncogene serine/threonine-protein kinase. The experiment in a line: Inhibition of CRAF in human Calu6 cells assessed as decrease in ERK phosphorylation. Format: cell-based.
A further assay addresses BRAF/CRAF (Homo sapiens, UniProt P04049+P15056). The experiment in a line: Stimulation of BRAF-CRAF dimerization in human HCT116 cells by luciferase complementation assay. It counts as cell-based.

Turning to `Cc1ncc(NC(=O)c2cccc(C(F)(F)F)c2)cc1-c1cnc(OCCO)c(N2CCOCC2)c1`, the IC50 in assay [1] came out at 0.0005 µM. Besides, in assay [2], the EC50 came out at 0.08 µM.

For the compound `Cc1ncc(NC(=O)c2cccc(C(F)(F)F)c2)cc1-c1cnc(OC(C)C)c(N2CCOCC2)c1`, the IC50 in assay [1] came to 0.0006 µM. Moreover, in assay [2], the EC50 amounted to 0.3 µM.

As to `Cc1ncc(NC(=O)c2cccc(C(F)(F)F)c2)cc1-c1cnc(OC2CCOCC2)c(N2CCOCC2)c1`, the EC50 turned out to be 0.1 µM in assay [3], 0.796 µM at BRAF/CRAF and 0.02 µM in assay [2].

With `Cc1ccc(NC(=O)c2cccc(C(F)(F)F)c2)cc1-c1cc(N2CCOCC2)ncn1`, in assay [2], the EC50 amounted to 0.08 µM.
